PubChem BioAssay (NCI)
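Cultured in 96-well plates, cells were exposed to test compound for 48 hours across five concentrations. GI50 = concentration required for 50% inhibition of growth. The concentration for full growth arrest is given as TGI.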

Columns and labels:
Experiment in all cases: NCI tumour cell line growth inhibition, 48 h
786-0 renal = tested on: 786-0 renal
A498 renal = tested on: A498 renal
A549 NSCLC = tested on: A549 NSCLC
ACHN renal = tested on: ACHN renal
BT-549 breast = tested on: BT-549 breast
CAKI-1 renal = tested on: CAKI-1 renal
CCRF-CEM leukemia = tested on: CCRF-CEM leukemia
COLO 205 colon = tested on: COLO 205 colon
DU-145 prostate = tested on: DU-145 prostate
EKVX NSCLC = tested on: EKVX NSCLC
HCT-116 colon = tested on: HCT-116 colon
HCT-15 colon = tested on: HCT-15 colon
HL-60(TB) leukemia = tested on: HL-60(TB) leukemia
HOP-62 NSCLC = tested on: HOP-62 NSCLC
HOP-92 NSCLC = tested on: HOP-92 NSCLC
HS 578T breast = tested on: HS 578T breast
HT29 colon = tested on: HT29 colon
IGROV1 ovarian = tested on: IGROV1 ovarian
K-562 leukemia = tested on: K-562 leukemia
KM12 colon = tested on: KM12 colon
LOX IMVI melanoma = tested on: LOX IMVI melanoma
M14 melanoma = tested on: M14 melanoma
MALME-3M melanoma = tested on: MALME-3M melanoma
MCF7 breast = tested on: MCF7 breast
MDA-MB-231 breast = tested on: MDA-MB-231 breast
MDA-MB-435 = tested on: MDA-MB-435
MDA-N = tested on: MDA-N
MOLT-4 leukemia = tested on: MOLT-4 leukemia
NCI-H23 lung = tested on: NCI-H23 lung
NCI-H322M lung = tested on: NCI-H322M lung
NCI-H460 lung = tested on: NCI-H460 lung
NCI-H522 lung = tested on: NCI-H522 lung
NCI/ADR-RES ovarian = tested on: NCI/ADR-RES ovarian
OVCAR-3 ovarian = tested on: OVCAR-3 ovarian
OVCAR-5 ovarian = tested on: OVCAR-5 ovarian
OVCAR-8 ovarian = tested on: OVCAR-8 ovarian
PC-3 prostate = tested on: PC-3 prostate
RPMI-8226 leukemia = tested on: RPMI-8226 leukemia
SF-268 CNS = tested on: SF-268 CNS
SF-295 CNS = tested on: SF-295 CNS
SF-539 CNS = tested on: SF-539 CNS
SK-MEL-2 melanoma = tested on: SK-MEL-2 melanoma
SK-MEL-28 melanoma = tested on: SK-MEL-28 melanoma
SK-MEL-5 melanoma = tested on: SK-MEL-5 melanoma
SK-OV-3 ovarian = tested on: SK-OV-3 ovarian
SN12C renal = tested on: SN12C renal
SNB-19 CNS = tested on: SNB-19 CNS
SNB-75 CNS = tested on: SNB-75 CNS
SR leukemia = tested on: SR leukemia
SW-620 colon = tested on: SW-620 colon
T-47D breast = tested on: T-47D breast
TK-10 renal = tested on: TK-10 renal
U251 CNS = tested on: U251 CNS
UACC-257 melanoma = tested on: UACC-257 melanoma
UACC-62 melanoma = tested on: UACC-62 melanoma
UO-31 renal = tested on: UO-31 renal

SMILES: ClCCN1CCCCC1CCl (configuration not stated)
- GI50 (786-0 renal): 22.3 µM
- TGI (786-0 renal): > 100 µM
- GI50 (A498 renal): > 100 µM
- TGI (A498 renal): > 100 µM
- GI50 (A549 NSCLC): 32.6 µM
- TGI (A549 NSCLC): > 100 µM
- GI50 (ACHN renal): 18.6 µM
- TGI (ACHN renal): > 100 µM
- GI50 (BT-549 breast): 17.8 µM
- TGI (BT-549 breast): > 100 µM
- GI50 (CAKI-1 renal): 24.9 µM
- TGI (CAKI-1 renal): > 100 µM
- GI50 (CCRF-CEM leukemia): 15 µM
- TGI (CCRF-CEM leukemia): > 100 µM
- GI50 (COLO 205 colon): > 100 µM
- TGI (COLO 205 colon): > 100 µM
- GI50 (DU-145 prostate): 60.7 µM
- TGI (DU-145 prostate): > 100 µM
- GI50 (EKVX NSCLC): > 100 µM
- TGI (EKVX NSCLC): > 100 µM
- GI50 (HCT-116 colon): > 100 µM
- TGI (HCT-116 colon): > 100 µM
- GI50 (HCT-15 colon): > 100 µM
- TGI (HCT-15 colon): > 100 µM
- GI50 (HL-60(TB) leukemia): 24.8 µM
- TGI (HL-60(TB) leukemia): > 100 µM
- GI50 (HOP-62 NSCLC): 43.5 µM
- TGI (HOP-62 NSCLC): > 100 µM
- GI50 (HOP-92 NSCLC): 53.3 µM
- TGI (HOP-92 NSCLC): > 100 µM
- GI50 (HS 578T breast): > 100 µM
- TGI (HS 578T breast): > 100 µM
- GI50 (HT29 colon): > 100 µM
- TGI (HT29 colon): > 100 µM
- GI50 (IGROV1 ovarian): 38.2 µM
- TGI (IGROV1 ovarian): > 100 µM
- GI50 (K-562 leukemia): > 100 µM
- TGI (K-562 leukemia): > 100 µM
- GI50 (KM12 colon): > 100 µM
- TGI (KM12 colon): > 100 µM
- GI50 (LOX IMVI melanoma): 47.1 µM
- TGI (LOX IMVI melanoma): > 100 µM
- GI50 (M14 melanoma): 44.2 µM
- TGI (M14 melanoma): > 100 µM
- GI50 (MALME-3M melanoma): 46.5 µM
- TGI (MALME-3M melanoma): > 100 µM
- GI50 (MCF7 breast): 48.2 µM
- TGI (MCF7 breast): > 100 µM
- GI50 (MDA-MB-231 breast): > 100 µM
- TGI (MDA-MB-231 breast): > 100 µM
- GI50 (MDA-MB-435): > 100 µM
- TGI (MDA-MB-435): > 100 µM
- GI50 (MDA-N): > 100 µM
- TGI (MDA-N): > 100 µM
- GI50 (MOLT-4 leukemia): 16.4 µM
- TGI (MOLT-4 leukemia): > 100 µM
- GI50 (NCI-H23 lung): 32.1 µM
- TGI (NCI-H23 lung): > 100 µM
- GI50 (NCI-H322M lung): > 100 µM
- TGI (NCI-H322M lung): > 100 µM
- GI50 (NCI-H460 lung): 46.8 µM
- TGI (NCI-H460 lung): > 100 µM
- GI50 (NCI-H522 lung): 20.3 µM
- TGI (NCI-H522 lung): > 100 µM
- GI50 (NCI/ADR-RES ovarian): > 100 µM
- TGI (NCI/ADR-RES ovarian): > 100 µM
- GI50 (OVCAR-3 ovarian): > 100 µM
- TGI (OVCAR-3 ovarian): > 100 µM
- GI50 (OVCAR-5 ovarian): > 100 µM
- TGI (OVCAR-5 ovarian): > 100 µM
- GI50 (OVCAR-8 ovarian): > 100 µM
- TGI (OVCAR-8 ovarian): > 100 µM
- GI50 (PC-3 prostate): > 100 µM
- TGI (PC-3 prostate): > 100 µM
- GI50 (RPMI-8226 leukemia): 78.6 µM
- TGI (RPMI-8226 leukemia): > 100 µM
- GI50 (SF-268 CNS): 40.7 µM
- TGI (SF-268 CNS): > 100 µM
- GI50 (SF-295 CNS): 35.9 µM
- TGI (SF-295 CNS): > 100 µM
- GI50 (SF-539 CNS): 35.7 µM
- TGI (SF-539 CNS): > 100 µM
- GI50 (SK-MEL-2 melanoma): > 100 µM
- TGI (SK-MEL-2 melanoma): > 100 µM
- GI50 (SK-MEL-28 melanoma): > 100 µM
- TGI (SK-MEL-28 melanoma): > 100 µM
- GI50 (SK-MEL-5 melanoma): > 100 µM
- TGI (SK-MEL-5 melanoma): > 100 µM
- GI50 (SK-OV-3 ovarian): > 100 µM
- TGI (SK-OV-3 ovarian): > 100 µM
- GI50 (SN12C renal): 9.84 µM
- TGI (SN12C renal): > 100 µM
- GI50 (SNB-19 CNS): > 100 µM
- TGI (SNB-19 CNS): > 100 µM
- GI50 (SNB-75 CNS): 81.7 µM
- TGI (SNB-75 CNS): > 100 µM
- GI50 (SR leukemia): 4.46 µM
- TGI (SR leukemia): 44.5 µM
- GI50 (SW-620 colon): > 100 µM
- TGI (SW-620 colon): > 100 µM
- GI50 (T-47D breast): 89.4 µM
- TGI (T-47D breast): > 100 µM
- GI50 (TK-10 renal): > 100 µM
- TGI (TK-10 renal): > 100 µM
- GI50 (U251 CNS): > 100 µM
- TGI (U251 CNS): > 100 µM
- GI50 (UACC-257 melanoma): > 100 µM
- TGI (UACC-257 melanoma): > 100 µM
- GI50 (UACC-62 melanoma): 44.3 µM
- TGI (UACC-62 melanoma): > 100 µM
- GI50 (UO-31 renal): 67 µM
- TGI (UO-31 renal): > 100 µM
